Laboratory results from article PMC8532962 (Antibiotics, 2021).

Assays:
[1] = test system: E. coli; assay: Antibacterial MIC, microbroth dilution; assay type: cell-based, Escherichia coli ATCC 25922; conditions: growth curves OD600, 20 h
Description: (§1) The antibacterial activity of the natural peptides and analogs was determined using the standard microbroth dilution method for determining minimal inhibitory concentration (MIC). […] The analog EMP-ER-D2K2 is the only analog that has some, but low, activity against B. subtilis with an MIC of 200 μg/mL.
(§2) Escherichia coli ATCC 25922 was obtained from ATCC and Pseudomonas aeruginosa ATCC 27853 was obtained from Carolina Biologicals. Staphylococcus aureus Newman was the S. aureus strain and the B. subtilis strain was JH642 (trpC2, pheA1).
(§3) Bacteria were grown on LB-agar plates (Fisher, Waltham, MA, USA) overnight at 37 °C, then stored at 4 °C until use. Four colonies were inoculated from the plate into 5 mL cation-adjusted Mueller-Hinton medium (Sigma) and grown to approximately OD600 = 1–2 at 37 °C in a shaking incubator at 250 rpm in preparation for antimicrobial activity testing. MICs were determined in cation-adjusted Mueller-Hinton broth using the microbroth dilution method from the Clinical and Laboratory Standards Institute. Growth was monitored by determining the optical density at 600 nm using a BioTek Synergy HTX multi-mode 96-well plate reader set to incubate at 37 °C and record every 15 min for 20 h. Each assay was performed in biological triplicate.

[2] = test system: B. subtilis; assay: Antibacterial MIC, microbroth dilution; assay type: cell-based, Bacillus subtilis JH642; conditions: growth curves OD600, 20 h
Description: as §1, §2, §3

[3] = test system: Candida albicans SC5314; conditions: SC5314, 24 h
[4] = test system: Aspergillus nidulans FGSC A4; conditions: 24 h
[5] = test system: Schizosaccharomyces pombe 972h-
[6] = test system: Saccharomyces cerevisiae S288C; conditions: 24 h

SMILES | effect on Escherichia coli culture growth [1] | effect on B. subtilis culture growth [2] | MIC Ca [3] [µg/mL] | MIC An [4] [µg/mL] | MIC Sp [5] [µg/mL] | MIC Sc [6] [µg/mL]
CC[C@H](C)[C@H](NC(=O)[C@H](CC(=O)O)NC(=O)[C@@H](N)Cc1ccccc1)C(=O)N[C@@H](CC[S+](C)[O-])C(=O)NCC(=O)N[C@@H](CC(C)C)C(=O)N[C@H](C(=O)N[C@@H](CCCCN)C(=O)N[C@@H](CCCCN)C(=O)N[C@H](C(=O)N[C@@H](C)C(=O)NCC(=O)N[C@@H](C)C(=O)N[C@@H](CC(C)C)C(N)=O)C(C)C)[C@@H](C)CC (stereo partly shown) [EMP-ER-OR] | reduced the final density | reduced the final density | 256 (≈ 172 µM) | >256 | >256 | >256
CC[C@H](C)[C@H](NC(=O)[C@H](CC(=O)O)NC(=O)[C@@H](N)Cc1ccccc1)C(=O)N[C@@H](CC[S+](C)[O-])C(=O)NCC(=O)N[C@@H](CC(C)C)C(=O)N[C@H](C(=O)N[C@@H](CCCCN)C(=O)N[C@@H](CCCCN)C(=O)N[C@H](C(=O)N[C@@H](C)C(N)=O)C(C)C)[C@@H](C)CC (stereo partly shown) [EMP-ER-C3] |  |  | >256 | >256 | >256 | >256

Values after ≈ are worked out from the molar mass of the structure shown.
